Earlier results on one molecule are cited in article PMC8215855 (Journal of medicinal chemistry, 2020).

Structures are written as SMILES.

The data set deals with SphK2. Conditions: read-out: SphK2 Ki; previous work in the group; cited from earlier work.

On to `CCCCCCCCc1ccc(-c2noc([C@@H]3CCCN3C(=N)N)n2)cc1` [Compound 7], for which the Ki (in general, a dissociation constant, usually derived from enzyme kinetics or from competition with a known ligand) is 1300 nM.
